Experimental data taken from patent US6475781.

Molecular target: wildtype murine PDGF A chain (murine) (UniProt P20033)
Experiment: cell-based or functional assay

## PDGF A dominant negative mutant 1317 (murine preproPDGF A chain with -ArgLysArg- of the proteolytic cleavage site -ArgArgLysArg- changed to -SerAsnGly-) (from UniProt P20033 21-196) (ligand)
  PDGF activity in conditioned media of co-transfected COS cells (bioassay on Balb/c-3T3 cells), 3-fold excess of 1317 DNA (fold decrease): 5
  PDGF activity in conditioned media of co-transfected COS cells (bioassay on Balb/c-3T3 cells), 7-fold excess of 1317 DNA (fold decrease): 10
  growth of PDGF-A transformed Balb/c 3T3 sublines in PPP-supplemented medium (% suppression): 70
